According to ChEMBL document CHEMBL3232795, “Using 'biased-privileged' scaffolds to identify lysine methyltransferase inhibitors” (Bioorg Med Chem, 2014):

Columns and labels:
[1] = target: T1, Histone-lysine N-methyltransferase SETD7 (Homo sapiens, UniProt Q8WTS6); assay: Inhibition of methyl-transferase activity in GST-tagged recombinant SET7/9 (unknown origin) expressed in Escherichia coli BL21 using H3(1-20)-cys-biotin as substrate preincubated for 5 mins followed by substrate addition by ELISA
T1 sequence (Q8WTS6 whole entry): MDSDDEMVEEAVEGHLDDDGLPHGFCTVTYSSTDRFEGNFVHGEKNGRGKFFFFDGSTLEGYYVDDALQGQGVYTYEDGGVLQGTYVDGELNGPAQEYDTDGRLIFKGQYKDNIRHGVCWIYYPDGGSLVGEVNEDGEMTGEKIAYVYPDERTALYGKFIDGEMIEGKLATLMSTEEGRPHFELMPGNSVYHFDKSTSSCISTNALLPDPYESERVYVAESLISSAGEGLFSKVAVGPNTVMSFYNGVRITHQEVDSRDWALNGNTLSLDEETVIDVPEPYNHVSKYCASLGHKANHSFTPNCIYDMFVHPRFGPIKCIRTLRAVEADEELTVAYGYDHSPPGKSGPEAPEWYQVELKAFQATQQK

[2] = target: T1, Histone-lysine N-methyltransferase SETD7; assay: Inhibition of 10 nM SET7 (unknown origin)-mediated methylation of histone H3(1-20)cys-biotin at 15 to 50 uM after 5 mins by scintillation proximity assay in presence of [3H]-S-adenosyl-methionine
[3] = target: T1, Histone-lysine N-methyltransferase SETD7; assay: Inhibition of 50 nM SET7 (unknown origin)-mediated methylation of histone H3(1-20)cys-biotin at 15 to 50 uM after 5 mins by scintillation proximity assay in presence of [3H]-S-adenosyl-methionine
[4] = target: T1, Histone-lysine N-methyltransferase SETD7; assay: Inhibition of 100 nM SET7 (unknown origin)-mediated methylation of histone H3(1-20)cys-biotin at 15 to 50 uM after 5 mins by scintillation proximity assay in presence of [3H]-S-adenosyl-methionine
[5] = target: T1, Histone-lysine N-methyltransferase SETD7; assay: Inhibition of SET7 (unknown origin)-mediated methylation of histone H3(1-20)cys-biotin after 5 mins by scintillation proximity assay in presence of [3H]-S-adenosyl-methionine

IC50 [1]: 9.93 µM
IC50 [2]: 19 µM
IC50 [3]: 22.5 µM
IC50 [4]: 19.5 µM
IC50 [5]: 22.5 µM
Structure (SMILES): O=C(O)c1cccc(NCc2cccc(-n3ccc4c(-c5ccc(C(F)(F)F)cc5)cccc43)c2)c1
